Patent US20120115896A1, “ISOGENIC HUMAN CELL LINES COMPRISING MUTATED CANCER ALLELES AND PROCESS USING THE CELL LINES” (priority 2008, published 2012)

What was measured:
[1] = tested on: hTERT-HME1 cells carrying EGFR (delE746-A750) KI; assay: Drug assay: cell viability by ATP content (CellTiter-Glo, 96 h), KI versus parental cells; ΔKI pharmarray analysis
[2] = tested on: hTERT-HME1 DKI cells carrying PIK3CA (H1047R) and EGFR (delE746-A750); assay: Drug assay: cell viability by ATP content (96 h), DKI versus parental cells; ΔKI pharmarray analysis
[3] = tested on: hTERT-HME1 cells carrying PIK3CA (E545K and H1047R) KI; assay: Drug assay: cell viability by ATP content (96 h) and Hoechst/propidium iodide staining, KI versus parental cells; ΔKI pharmarray analysis

Compound | pharmarray: differential response of EGFR mutated cells versus WT [1] | ΔKI PIK3CA + EGFR [2] | ΔKI PIK3CA [3] | ΔKI EGFR [1] | sensitization in DKI cells containing both EGFR and PIK3CA alterations [2]
Cc1nc(Nc2ncc(C(=O)Nc3c(C)cccc3Cl)s2)cc(N2CCN(CCO)CC2)n1 [dasatinib, Dasatinib monohydrate] | EGFR sensitive drug cluster |  |  |  | 
Sunitinib Maleate |  | 0 | 0 | 0 | 
COc1cc2ncnc(Nc3ccc(F)c(Cl)c3)c2cc1OCCCN1CCOCC1 [gefitinib, Gefitinib] | inhibit EGFR mutated cells selectively |  |  |  | abrogates the sensitization seen with the EGFR KI alone
